According to ChEMBL document CHEMBL5634119, “Design and synthesis of 4th generation EGFR inhibitors against human triple (Del19/T790M/C797S) mutation” (Eur J Med Chem, 2023):

Assay: Selectivity index, ratio of IC50 for inhibition of EGFR del19/T790M/C797S triple mutant in mouse BAF3 cells assessed as reduction in cell proliferation to IC50 for inhibition of wild type EGFR in mouse BAF3 cells assessed as reduction in cell proliferation
Format: cell-based

Row | Structure (SMILES) | Ratio IC50
1 | CN1CCN(c2ccc(Nc3nc(Nc4ccccc4N(C)S(C)(=O)=O)c4cc[nH]c4n3)cc2)CC1 | 4.2
2 | CN1CCN(c2ccc(Nc3nc(Nc4ccccc4N(C)S(C)(=O)=O)c4cc[nH]c4n3)cc2F)CC1 | 11.9
